Source: US20230203021A1, “GLP-1 RECEPTOR AGONIST, PHARMACEUTICAL COMPOSITION COMPRISING SAME, AND METHOD FOR PREPARING SAME” (LG CHEM, LTD., priority 2020, published 2023)

The chains behind the UniProt entries cited, without tags or fusion partners. Residues count along the entry.
UniProt P43220, 24-463 limits assumed: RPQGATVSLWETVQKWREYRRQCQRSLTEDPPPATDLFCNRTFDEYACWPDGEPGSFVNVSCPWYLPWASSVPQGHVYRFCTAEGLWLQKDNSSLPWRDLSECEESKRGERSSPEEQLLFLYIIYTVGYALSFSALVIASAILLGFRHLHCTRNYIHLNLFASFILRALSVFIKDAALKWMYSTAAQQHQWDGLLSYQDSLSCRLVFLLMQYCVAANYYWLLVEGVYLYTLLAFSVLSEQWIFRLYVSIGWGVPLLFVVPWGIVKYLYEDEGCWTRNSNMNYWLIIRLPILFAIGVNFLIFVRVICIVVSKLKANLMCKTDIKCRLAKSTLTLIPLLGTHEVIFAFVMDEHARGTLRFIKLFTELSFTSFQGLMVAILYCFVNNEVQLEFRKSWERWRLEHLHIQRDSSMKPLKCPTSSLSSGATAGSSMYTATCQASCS

Biological target: hGLP-1R (Homo sapiens, UniProt P43220)
Test: Measurement of activity of GLP-1R agonist (cell-based luciferase assay), CHO-K1/hGLP-1R/CRE-luciferase cell line
Conditions: GLP-1R activity; CHO-K1/hGLP-1R/CRE-luciferase cells, 9 concentrations, four hours of incubation, Bright-Glo luminescence

`O=C(O)c1ccc2nc(Cc3ccc(-c4cccc(OCc5ccc(Cl)cc5F)n4)cc3)n(Cc3cnco3)c2c1` gave an EC50 of 2.93 nM.
